Data: patent US10682371B2, “Small molecule conjugates specifically activated in tumor microenvironment for targeting and use thereof” (priority 2014, dated 2020)
Where “and” joins values, the source holds several entries; their conditions need not be identical. Equal entries are not always repeated. Where two headings read alike, the source gives them in different places.

Legend:
[1] = Solubility / formulation test in solvent 1 and solvent 2; type: physicochemical
Experimental: In Table 11, AAN, AANL and AANK indicate the linkage formed by small peptides in the compounds, A is Ala, N is Asn, L is Leu and K is Lys. […] The dissolution concentration is 10 mg/ml.
B1, B2, B3 and B4 and various control compounds were dried under vacuum, sterilized via gas sterilization, and separately packing in a sterile room. Before animal test, B1, B2, B3 and B4 were dissolved by solvent 1 (injectable water) or solvent 2 (30% alcohol, 70% injectable water) and diluted by injectable water to the desired concentration in sterile room. […] Change in solubility may greatly affect the formulation scheme of a drug.
D1, D2, D3, D4 and various control compounds were dried under vacuum, sterilized via gas sterilization, and separately packing in a sterile room. […] Change in solubility may greatly affect the formulation scheme of a drug.

BALB/C mice = experiment: Maximum tolerated dose (MTD) / acute toxicity by single intravenous injection; settings: for MTD (maximum tolerated dose): intravenous injection, one time
[2] = system: Human chronic leukemia K562 tumor tissue homogenate; type: biochemical; settings: Human chronic leukemia K562; 37° C., 1 mg/ml
Experimental: (§1) At 37 °C, sample compounds were added into 100 μg acidized tumor tissue homogenates (pH6.0) in a concentration of 1 mg/ml.
(§2) […], sample compounds were added into 100 μg acidized tumor tissue homogenates (pH6.0) in a concentration of 1 mg/ml.
(§3) At 37 °C, sample compounds were added into 100 μg acidized tumor tissue homogenates in a concentration of 1 mg/ml.
(§4) In the experiments, at 37 °C, compounds were added into proteases in 100 μg acidized tumor tissue homogenates in a concentration of 1 mg/ml. […] Meanwhile certain compounds produced in the screening were compared and their activation efficiency in same tissue was analyzed.
(§5) At 37° C., compounds were added into proteases in 100 μg acidized tumor tissue homogenates in a concentration of 1 mg/ml.

[3] = system: Human fibrosarcoma HT-1080 tumor tissue homogenate; type: biochemical; settings: Human fibrosarcoma HT-1080
Experimental: as §1, §2, §3, §4, §5

HT1080 model = experiment: Comparative experiments of Legutaxel, Abraxane and Paclitaxel in HT1080 model; type: in vivo; settings: high dose comparison
Experimental: FIGS. 1A and 1B show comparative experiments performed in HT1080 model by using a high dose of Legutaxel, Capxol and Paclitaxel injections, which were used at an equal molar dose and at an equal toxic dose.
Comparative experiments for a high dose of Legutaxel, Abraxane and Paclitaxel were performed in HT1080 model, which were used at an equal molar dose and at an equal toxic dose.

[4] = single intravenous injection, 25 mg/kg, 10 BALB/C mice per group
[5] = single intravenous injection, 30 mg/kg, 10 BALB/C mice per group, 30 mg/kg
[6] = single intravenous injection, 35 mg/kg, 10 BALB/C mice per group, 35 mg/kg
[7] = single intravenous injection, 40 mg/kg, 10 BALB/C mice per group
[8] = single intravenous injection, 30 mg/kg, 10 BALB/C mice per group
[9] = single intravenous injection, 35 mg/kg, 10 BALB/C mice per group

Docetaxel [reference compound]
Solubility in water, in words [1]: insoluble in water
MTD (maximum tolerated dose) (BALB/C mice; BALB/C mice): 25 mg/kg
Mortality rate (%) (BALB/C mice; [4]): 0%
Number of dead animal (BALB/C mice; [4]): 0
Mortality rate (%) (BALB/C mice; [5]): 30% and 20%
Number of dead animal (BALB/C mice; [5]): 3 and 2
Mortality rate (%) (BALB/C mice; [6]): 60% and 50%
Number of dead animal (BALB/C mice; [6]): 6 and 5
Mortality rate (%) (BALB/C mice; [7]): 100%
Number of dead animal (BALB/C mice; [7]): 10

COCCOCCOCCOCCOCCOCC(=O)N[C@H](C)C(=O)N[C@H](C)C(=O)N[C@H](CC(N)=O)C(=O)Nc1ccc(COC(=O)N2[C@H]3[C@@H]2CN2C4=C(C(=O)C(N)=C(C)C4=O)[C@H](COC(N)=O)[C@]32OC)cc1 [Compound E2]
Activation ratio (%) in homogenates from different tumor tissues [2]: 68.4%

COCCOCCOCCOCCOCCOCC(=O)N[C@H](C)C(=O)N[C@H](C)C(=O)N[C@H](CC(N)=O)C(=O)Nc1ccc(COC(=O)OC(C(=O)OC2C[C@@]3(O)[C@@H](OC(=O)c4ccccc4)[C@H]4[C@](C)(C(=O)[C@H](OC(C)=O)C(=C2C)C3(C)C)[C@@H](O)CC2OC[C@]24OC(C)=O)[C@@H](NC(=O)c2ccccc2)c2ccccc2)cc1 (some centres unmarked) [S2′]
Activation ratio (%) in homogenates from different tumor tissues ([3]; 100 μg acidized homogenate pH6.0, 1 mg/ml, 37°): 75.4%

COCCOCCOCCOCCOCCOCC(=O)NCCCC[C@H](NC(=O)COCCOCCOCCOCCOCCOC)C(=O)N[C@H](C)C(=O)N[C@H](C)C(=O)N[C@H](CC(N)=O)C(=O)Nc1ccc(COC(=O)OC(C(=O)OC2C[C@@]3(O)[C@@H](OC(=O)c4ccccc4)[C@H]4[C@](C)(C(=O)[C@H](OC(C)=O)C(=C2C)C3(C)C)[C@@H](O)CC2OC[C@]24OC(C)=O)[C@@H](NC(=O)c2ccccc2)c2ccccc2)cc1 (some centres unmarked) [Compound A2]
Activation ratio (%) in homogenates from different tumor tissues ([3]; 1 mg/ml, 100 μg acidized homogenate pH6.0, Paclitaxel release by HPLC): 78.4%

Paclitaxel [reference compound]
Solubility in water, in words [1]: insoluble in water
Death during treatment (HT1080 model): Death occurred after the third treatment
MTD (maximum tolerated dose) (BALB/C mice; BALB/C mice): 6 mg/kg
Mortality rate (%) (BALB/C mice; BALB/C mice, single iv, 25 mg/kg): 0%
Number of dead animal (BALB/C mice; BALB/C mice, single iv, 25 mg/kg, 10 animals): 0
Mortality rate (%) (BALB/C mice; BALB/C mice, single iv, 30 mg/kg): 10%
Number of dead animal (BALB/C mice; BALB/C mice, single iv, 30 mg/kg, 10 animals): 1
Mortality rate (%) (BALB/C mice; BALB/C mice, single iv, 35 mg/kg): 40%
Number of dead animal (BALB/C mice; BALB/C mice, single iv, 35 mg/kg, 10 animals): 4
Mortality rate (%) (BALB/C mice; BALB/C mice, single iv, 40 mg/kg): 90%
Number of dead animal (BALB/C mice; BALB/C mice, single iv, 40 mg/kg, 10 animals): 8
Mortality rate (%) (BALB/C mice; [4]): 10%
Number of dead animal (BALB/C mice; [4]): 0
Mortality rate (%) (BALB/C mice; [8]): 0%
Number of dead animal (BALB/C mice; [8]): 0
Mortality rate (%) (BALB/C mice; [9]): 10%
Number of dead animal (BALB/C mice; [9]): 1
Mortality rate (%) (BALB/C mice; [7]): 40%
Number of dead animal (BALB/C mice; [7]): 4
